Measured values reported in US7071185B2, “1,2,3,4,7,8-hexahydro-6H-[1,4]diazepino[6,7,1-ij]quinoline derivatives as antipsychotic and antiobesity agents” (Wyeth, priority 2002, dated 2006).

By UniProt entry, the sequences of proteins in these tests, tags left out. Residues count along the entry.
UniProt P28335, 33-458: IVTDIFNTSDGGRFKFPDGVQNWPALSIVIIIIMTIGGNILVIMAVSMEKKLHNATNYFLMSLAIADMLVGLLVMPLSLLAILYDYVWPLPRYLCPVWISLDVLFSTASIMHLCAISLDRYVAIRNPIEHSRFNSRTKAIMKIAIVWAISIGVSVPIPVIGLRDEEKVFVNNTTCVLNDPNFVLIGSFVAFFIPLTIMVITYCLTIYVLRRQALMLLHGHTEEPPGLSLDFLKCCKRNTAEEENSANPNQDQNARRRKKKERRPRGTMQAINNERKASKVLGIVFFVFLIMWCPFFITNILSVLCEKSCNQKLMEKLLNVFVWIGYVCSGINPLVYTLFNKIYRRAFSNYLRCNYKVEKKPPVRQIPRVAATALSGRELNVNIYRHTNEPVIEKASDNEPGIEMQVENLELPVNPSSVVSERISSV

How the values were obtained:
[1] = target: T1, human 5-hydroxytryptamine2C (h5HT2C) receptor (Homo sapiens, UniProt P28335); test: 5HT2C receptor binding ([125I]DOI displacement, CHO cell membranes); details: [125I]DOI binding, CHO membranes expressing h5HT2C; read-out: Ki (95% confidence interval), reference compounds
T1 construct: expressed in transfected cells; host or cells: CHO (Chinese Hamster Ovary) cells; membrane preparation

human 5-HT2C receptor = target: T2, human 5-HT2C receptor (Homo sapiens, UniProt P28335); test: Calcium mobilization in response to 5-HT2C receptor agonists (FLIPR); type: cell-based; details: CHO cells stably expressing human 5-HT2C receptor, Fluo-3 calcium; read-out: EC50, reference compounds
T2 construct: expressed in transfected cells

Work on `Clc1cccc(N2CCNCC2)c1` [mCPP, meta-chlorophenylpiperazine, reference compound] yielded a Ki [1] of 6.5 nM and an EC50 (human 5-HT2C receptor) of 5.4 nM.
